# scFv variants of Ab-14 (heavy chain) against a SARS-CoV-2 spike peptide

Reference: Li et al. 2023, doi:10.1038/s41467-023-39022-2. File: FLAb, binding data.

All variants were tested on one target, the spike HR2 peptide PDVDLGDISGINAS (SARS-CoV-2).

Parent: Ab-14, a human scFv built as VH, a (GGGGS)3 linker, VL. Only the CDRs of the heavy chain vary.
VH: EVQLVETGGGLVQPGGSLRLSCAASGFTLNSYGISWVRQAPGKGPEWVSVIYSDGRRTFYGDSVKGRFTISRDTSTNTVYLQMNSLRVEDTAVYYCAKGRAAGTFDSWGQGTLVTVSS
VL: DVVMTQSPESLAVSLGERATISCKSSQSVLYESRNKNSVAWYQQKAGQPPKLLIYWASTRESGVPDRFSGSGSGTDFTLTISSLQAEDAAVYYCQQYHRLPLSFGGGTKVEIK

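The variants were designed computationally from a first round of random CDR variants and then made and measured. Group labels follow the data file (Ctrl: baseline library sampled from a position-specific scoring matrix, with some repeated check sequences; Rand: our label for a block that the file lists under HC and that is probably the random mutants of the ten best first-round binders; En: ensemble of fine-tuned language models; GP: Gaussian process model; GPLM: also part of the Gaussian process libraries; HC: hill climbing; Gen: genetic algorithm; Gibbs: Gibbs sampling; a sequence that several methods proposed may carry one label only). The scFvs were displayed on barcoded MATa yeast, the peptide on MATalpha yeast. Pairs that bind mate more often; barcode pairs of the diploids are counted by sequencing. A regression on co-assayed BCL2-family reference pairs converts the normalised counts of each replicate to an apparent Kd. Each pool was mated in six replicate cultures.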

The parent's heavy chain CDRs are GFTLNSYGIS, VIYSDGRRTFYGDSVK, GRAAGTFDS; each variant's own CDRs replace them letter for letter. Scale: log10 of Kd in nM, estimated from mating counts; low values are strong binders. Averages over replicates are reported, and they cover detected replicates only. A pair that was not seen in any replicate is written "not detected"; this usually means weak binding, but a binder can also be missed. Empty control strains, which show no peptide, gave a signal in 1% of pairings with all heavy chain designs; the median was 2.08 and 95% of these signals were weaker than 0.84. No background was subtracted. Values of this round are not directly comparable with the first-round values of the same sequences. The authors' rule: three or more of the six replicates give a measured affinity, fewer mean a poor binder. The parent sequence was in this pool as ten entries: three were never detected, three once, and four in most replicates, with averages from 0.34 to 2.37.

| CDR-H1 | CDR-H2 | CDR-H3 | group | mean, log10 nM | replicates with signal |
|---|---|---|---|---|---|
| GFDLNEYGIS | VIYADGMRTAYADSVK | GQTAGTFDI | En_Gen | -0.12 | 6 of 6 |
| GFDIKEQGIS | VIYADGMRTFYSDKVK | GQNSNGFDM | En_Gibbs | not detected | 0 of 6 |
| GFDLDEYGIS | VIYADGTRSNYLDTVK | GHTGADFID | En_Gibbs | not detected | 0 of 6 |
| GFDLDEYGIS | VIYADGMRTAYADDVK | GNQAGTFDL | En_Gen | -0.01 | 6 of 6 |
| GFSLNSYGIS | VIYSDGRRTAYGDDVK | GRNAGTFDS | GP_Gen | 0.65 | 5 of 6 |
| GFTLNSYGIS | VIYSDGRRTFYGDRVS | GRAAWGFDS | Ctrl | not detected | 0 of 6 |
| GFDLNEYGIS | VIYADGLRTSYADSVK | GQLAGTFDL | En_HC | 1.04 | 1 of 6 |
| GFSLKSYGIS | VIYSDGRRTFYGDSVK | GQACATFES | Ctrl | not detected | 0 of 6 |
| GFTLNDYGIS | VIYSDGRRVYYIDSVK | GRAAGTFDS | GP_HC | 1.57 | 6 of 6 |
| GFNLNSYGIS | VIYSDGRRTFYGDNVK | GRSAGTFDS | GP_Gibbs | 1.48 | 3 of 6 |
| GFDLNTYGIS | VIYSDGRRTFYGDSVK | GQTAGTFDS | GP_Gen | 0.09 | 6 of 6 |
| GFNLNEYGIS | VIYADGQRTKYIDNVK | GTVRVLAMG | En_Gibbs | not detected | 0 of 6 |
| GETLNSYGIS | VIYSDGRRTFYGNSVK | GGAAGTFDS | Ctrl | 1.14 | 2 of 6 |
| GFDLNEYGIS | VIYADGMRTAYADSVK | GHVAGTFDL | En_Gen | -0.49 | 6 of 6 |
| GITLNNYGIS | VIYSDGRRTFYGDSVK | GEAAGTFDS | Ctrl | 1.84 | 6 of 6 |
| GFDLNEYGIS | VIYADGMRTQYADSVK | GNNAGTFDI | En_Gen | -0.01 | 6 of 6 |
| GFELNSYGIS | VIYSDGRRTFYADSVK | GSAAGTFDS | GPLM_Gen | 0.05 | 6 of 6 |
| GFSLNSYGIS | VIYSDGRRTFYGDSVK | GQEAGTFDT | GPLM_Gibbs | -0.18 | 6 of 6 |
| GFTLNEYGIS | VIYSDGRRTFYGCSVK | GRAAVTFDQ | GPLM_HC | not detected | 0 of 6 |
| GFDLNEYGIS | VIYADGVRTAYADSVK | GSVAGTFDV | En_Gen | -0.68 | 6 of 6 |
| GFDLDEYGIS | VIYADGQRTAYADKVK | GNVAGTFDV | En_Gen | -0.69 | 6 of 6 |
| GKNLDEYGVS | VIYADGKRTAYTNNFK | GTNAGFFMS | En_Gibbs | not detected | 0 of 6 |
| GFDLNEYGIS | VIYADGMRTFYADSVK | GQNAGTFDQ | En_HC | 0.66 | 6 of 6 |
| GFDLNEYGIS | VIYADGRRTYYADSVK | GTNAGTFDV | En_Gen | 0.32 | 6 of 6 |
| GFDLNEYGIS | VIYADGQRTFYADSVK | GEVAGTFVQ | En_HC | -0.20 | 6 of 6 |
| GFTLNSYGIS | VIYSDGRRTYYGDDVK | GRFAGTFDL | Ctrl | 0.89 | 4 of 6 |
| GFWLNSYGIS | VIYSDGVRTFYGDSVK | GRAALTFDV | Ctrl | not detected | 0 of 6 |
| GFKLDEYGIS | VIYADGVRAHYKDSVK | GVHQGYVVM | En_Gibbs | not detected | 0 of 6 |
| GFTLNDYGIS | VIYSDGRRTQYGDSVK | GRAAGTPDM | Ctrl | 2.39 | 4 of 6 |
| GFDLNEYGIS | VIYADGMRTAYADNVK | GSNAGTFDI | En_Gen | -0.68 | 6 of 6 |
| GFNLNEYGIS | VIYSDGRRTFYTDSVK | GRMAGTFDS | GPLM_HC | -0.01 | 6 of 6 |
| GFDLNEYGIS | VIYADGVRTAYSDSVK | GNEAGTFDV | En_Gen | -0.84 | 6 of 6 |
| GFELNSYGIS | VIYSDGRRTFYGDSVK | GLNAGTFDS | GP_Gen | 0.69 | 4 of 6 |
| GFCLNSYGIS | VIYSDGRRTHYGDSVK | TRAAGTFHS | Ctrl | not detected | 0 of 6 |
| KFTLNEYGIS | VIYSDGRRTFYGDSVK | GRAAGTFDQ | GP_HC | 1.98 | 1 of 6 |
| GFTLDSYGIS | VIYSDGRRTFYTDEVK | GRAAGTFSS | Ctrl | 2.20 | 6 of 6 |
| GFTLNEYGIS | VIYSDGRRTFYGDSVK | GGAAGTFDS | Ctrl | 1.58 | 6 of 6 |
| YFSLNSYGIS | VIYSDGRRTFYIDSVK | GNAAGTFDS | GP_Gibbs | 1.04 | 1 of 6 |

The remaining entries, values ahead:

| mean, log10 nM | replicates with signal | CDR-H1 | CDR-H2 | CDR-H3 | group |
|---|---|---|---|---|---|
| not detected | 0 of 6 | GFTLDSYGIS | VIYSDGRRTFYGDSVK | GRAAGGALS | Rand |
| not detected | 0 of 6 | GFDLNSYGIS | VIYSDGRRTFYGDSVK | RRAAGTFDS | Ctrl |
| 0.12 | 6 of 6 | GFPLNDYGIS | VIYSDGRRTFYGDSVK | GQTAGTFDS | GP_Gibbs |
| 0.17 | 6 of 6 | GFDLDEYGIS | VIYADGMRTAYADSVK | GSNAGTFDI | En_Gen |
| 1.22 | 6 of 6 | GFSLNSYGIS | VIYSDGRRTFYGDSVK | GRWAGTFDS | GPLM_Gen |
| 1.90 | 1 of 6 | GFDLNEYGIS | VIYADGKKTGFANTVK | GESGGNFDD | En_Gibbs |
| -1.15 | 6 of 6 | GFDLNEYGIS | VIYADGRRSFYADSVK | GQLAGTFDI | En_HC |
| 0.06 | 6 of 6 | GFDLNKYGIS | VIYSDGRRTFYGDSVK | GRTAGTFDS | GPLM_Gen |
| 1.30 | 1 of 6 | GFNLEEYGIS | VIYADGSRSSYIEDVK | GGWNADFIV | En_Gibbs |
| 0.58 | 5 of 6 | GFNLNSYGIS | VIYSDGRRTFYGDPVK | GKTAGTFDS | GP_Gen |
| 0.05 | 6 of 6 | GFSLNEYGIS | VIYSDGRRTFYGDSVK | GKVAGTFDS | GP_Gen |
| 1.58 | 1 of 6 | GFDLNSYGIS | VIYSDGRRTFYGDSVK | GRMAGTFDS | GPLM_Gen |
| not detected | 0 of 6 | GFDLNEYGVS | VIYADGIRTAYADSFK | GNVGVAFFQ | En_Gibbs |
| 0.23 | 6 of 6 | GFSLNSYGIS | VIYSDGRRTFYSDSVK | GKAAGTFDS | GPLM_Gen |
| 2.12 | 2 of 6 | GFDLNTYGIS | VIYSDGRRTFYHDSVK | GEAAGTFDS | GP_Gibbs |
| 1.31 | 1 of 6 | GFTPNSYGIS | VIYSDGKRTFYGDKVK | GKAAGTFDS | Ctrl |
| not detected | 0 of 6 | GFTLNSYGIS | VIYSDGRRTFYGDSVK | GRAAGVFDW | Ctrl |
| not detected | 0 of 6 | GESLNSYGIS | VIYSDGRRTAYGDSVK | GRAAGTFDS | GP_Gen |
| -0.26 | 6 of 6 | GFSLNSYGIS | VIYADGRRTFYGDSVK | GKTAGTFDS | GP_Gen |
| 1.01 | 4 of 6 | GFDLNSYGIS | VIYSDGRRTFYADSVK | GQAAGKFDS | GPLM_Gen |
| not detected | 0 of 6 | GFELDEMGIS | VIYADGKRAAYSENVK | GDNRGIFHL | En_Gibbs |
| not detected | 0 of 6 | GFDLGEYGIS | VIYADGRRTAYQQSVK | GLNEGMLVI | En_Gibbs |
| -0.23 | 6 of 6 | GFDLNEYGIS | VIYADGKRTAYADNVK | GEVAGTFDM | En_Gen |
| not detected | 0 of 6 | GFTLNSYGIS | VIYADGRRTFYGDKVK | GRAAGTFPQ | Ctrl |
| -0.69 | 6 of 6 | GFDLNEYGIS | VIYADGMRTVYADSVK | GETAGTFDV | En_Gen |
| not detected | 0 of 6 | GFTLNEYGIS | VIYSDGRRTFYGDSVK | GRAAGTFTF | GPLM_HC |
| 1.55 | 1 of 6 | GMSLGEYGIS | VIYADGERVGYTNNFK | GVMAGTFDV | En_Gibbs |
| 0.59 | 6 of 6 | GFTLNSYGIS | VIYSDGRRTFYSDSVK | GKVAGTFDS | GPLM_Gibbs |
| -0.42 | 6 of 6 | GFDINEYGIS | VIYADGRRTFYADSVK | GQTAGTFDA | En_HC |
| 1.41 | 2 of 6 | GFTANSYGIS | VIYSDGRRTFYGDSVK | GNAAGTFDT | Ctrl |
| 1.50 | 3 of 6 | GFTLNSYGIS | VIYSDGHRTFYTDSVK | GQLAGTFDS | GPLM_HC |
| not detected | 0 of 6 | GKKLDEYGIS | VIYADGKRNFYSNSVK | GGLATGLFV | En_Gibbs |
| 1.73 | 6 of 6 | GFSLNSYGIS | VIYSDGRRTFYGDAVK | GKIAGTFDS | GPLM_Gibbs |
| -0.47 | 6 of 6 | GFDLDEYGIS | VIYADGKRTAYADSVK | GENAGTFDL | En_Gen |
| 0.90 | 4 of 6 | GFDLNEYGIS | VIYADGKRTFYSDSVK | GNAGGTFDQ | En_HC |
| 1.11 | 6 of 6 | GNNLDEYGIS | VIYADGQRTYYAEDVK | GKTGDNAFI | En_Gibbs |
| 0.86 | 1 of 6 | GFTLNDYGIS | VIYSDGRRTWYGDSVK | GEAAGTFDS | Ctrl |
| 0.91 | 6 of 6 | GFNLNSYGIS | VIYSDGKRTFYGDSVK | GRQAGTFDS | GP_Gen |

The closing 12 entries, repeated:

CDR-H1,CDR-H2,CDR-H3,group,"mean, log10 nM",replicates with signal
GMSLGEYGIS,VIYADGERVGYTNNFK,GVMAGTFDV,En_Gibbs,1.55,1 of 6
GFTLNSYGIS,VIYSDGRRTFYSDSVK,GKVAGTFDS,GPLM_Gibbs,0.59,6 of 6
GFDINEYGIS,VIYADGRRTFYADSVK,GQTAGTFDA,En_HC,-0.42,6 of 6
GFTANSYGIS,VIYSDGRRTFYGDSVK,GNAAGTFDT,Ctrl,1.41,2 of 6
GFTLNSYGIS,VIYSDGHRTFYTDSVK,GQLAGTFDS,GPLM_HC,1.50,3 of 6
GKKLDEYGIS,VIYADGKRNFYSNSVK,GGLATGLFV,En_Gibbs,not detected,0 of 6
GFSLNSYGIS,VIYSDGRRTFYGDAVK,GKIAGTFDS,GPLM_Gibbs,1.73,6 of 6
GFDLDEYGIS,VIYADGKRTAYADSVK,GENAGTFDL,En_Gen,-0.47,6 of 6
GFDLNEYGIS,VIYADGKRTFYSDSVK,GNAGGTFDQ,En_HC,0.90,4 of 6
GNNLDEYGIS,VIYADGQRTYYAEDVK,GKTGDNAFI,En_Gibbs,1.11,6 of 6
GFTLNDYGIS,VIYSDGRRTWYGDSVK,GEAAGTFDS,Ctrl,0.86,1 of 6
GFNLNSYGIS,VIYSDGKRTFYGDSVK,GRQAGTFDS,GP_Gen,0.91,6 of 6